Measurements: patent US10100016B2, “Condensed ring derivative, and preparation method, intermediate, pharmaceutical composition and use thereof” (SHANGHAI YINGLI PHARMACEUTICAL CO., LTD., priority 2015, dated 2018)

Sequences of proteins named here, by UniProt entry; tags and fusion partners are left off. A change or cut given only in a name is not applied to a line headed by its entry.
UniProt Q96S37: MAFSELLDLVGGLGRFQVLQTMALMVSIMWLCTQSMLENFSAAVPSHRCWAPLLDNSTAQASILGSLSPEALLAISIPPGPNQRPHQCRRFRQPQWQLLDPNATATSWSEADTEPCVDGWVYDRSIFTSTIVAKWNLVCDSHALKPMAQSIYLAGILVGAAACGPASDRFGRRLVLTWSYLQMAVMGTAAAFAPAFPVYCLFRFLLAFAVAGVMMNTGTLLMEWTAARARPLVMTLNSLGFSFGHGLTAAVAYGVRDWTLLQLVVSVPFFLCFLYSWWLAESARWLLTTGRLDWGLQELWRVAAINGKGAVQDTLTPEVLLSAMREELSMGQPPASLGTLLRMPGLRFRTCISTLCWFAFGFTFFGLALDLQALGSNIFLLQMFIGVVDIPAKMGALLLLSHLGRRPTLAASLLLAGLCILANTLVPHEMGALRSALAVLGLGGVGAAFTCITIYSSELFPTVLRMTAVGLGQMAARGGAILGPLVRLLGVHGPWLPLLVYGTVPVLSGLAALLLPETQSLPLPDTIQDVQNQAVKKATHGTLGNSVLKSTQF

Each compound was assayed against hURAT1 (Homo sapiens (Human), UniProt Q96S37) (assay: 14C-uric acid transport inhibition in transfected HEK293/hURAT1 cells). Details: 14C-uric acid uptake, 10 mins incubation, read-out: IC50 value against hURAT1.
Type: cell-based
Method: Human embryonic kidney cells (HEK293) was incubated in DMEM tissue culture medium, at 37° C., under 5% CO2 and 95% air atmosphere. […] Transfected HEK293/hURAT1 cells were used to the test for ^14C-uric acid transport activity.
The uric acid [8-14C] […] The incubating solution was removed after 10 mins incubation, followed by adding 100 μL cold washing buffer, after washing with this buffer for 3 times, the buffer was completely removed from the well.

Point of comparison: `O=C(O)CCc1cc2cccc(Cc3c(Cl)cccc3Cl)c2s1` [Compound 35, 3-{7-[(2,6-Dichlorophenyl)methyl]-1-benzothiophene-2-yl}propionic Acid], IC50 2410 nM. Against it:
- 3-[4-[(4-Cyanonaphthalen-1-yl)thieno[2,3-c]pyridine-2-yl]propionic acid [Compound 37] — 69-fold lower, 35 nM
- C[C@H](Cc1cc2cncc(-c3ccc(C#N)c4ccccc34)c2s1)C(=O)O (single isomer, unassigned) [Compound 46A] — 16-fold lower, 148 nM
- C[C@@H](Cc1cc2cncc(-c3ccc(C#N)c4ccccc34)c2s1)C(=O)O (single isomer, unassigned) [Compound 46B] — 47-fold lower, 51 nM
- O=C(O)CCc1cc2c(Cc3c(Cl)cccc3Cl)cccc2s1 [Compound 36, 3-{4-[(2,6-Dichlorophenyl)methyl]-1-benzothiophene-2-yl}propionic Acid] — 4.4-fold lower, 542 nM
- CC(C)(Cc1cc2c(-c3ccc(C#N)cc3)cncc2s1)C(=O)O [Compound 48, 3-[4-(4-Cyanophenyl)thieno[2,3-c]pyridin-2-yl]-2,2-dimethyl propionic Acid] — 200-fold lower, 12 nM
